The target of assay [1] is T1, Lethal(3)malignant brain tumor-like protein 4 (Homo sapiens, UniProt Q8NA19).
T1 sequence (Q8NA19 whole entry): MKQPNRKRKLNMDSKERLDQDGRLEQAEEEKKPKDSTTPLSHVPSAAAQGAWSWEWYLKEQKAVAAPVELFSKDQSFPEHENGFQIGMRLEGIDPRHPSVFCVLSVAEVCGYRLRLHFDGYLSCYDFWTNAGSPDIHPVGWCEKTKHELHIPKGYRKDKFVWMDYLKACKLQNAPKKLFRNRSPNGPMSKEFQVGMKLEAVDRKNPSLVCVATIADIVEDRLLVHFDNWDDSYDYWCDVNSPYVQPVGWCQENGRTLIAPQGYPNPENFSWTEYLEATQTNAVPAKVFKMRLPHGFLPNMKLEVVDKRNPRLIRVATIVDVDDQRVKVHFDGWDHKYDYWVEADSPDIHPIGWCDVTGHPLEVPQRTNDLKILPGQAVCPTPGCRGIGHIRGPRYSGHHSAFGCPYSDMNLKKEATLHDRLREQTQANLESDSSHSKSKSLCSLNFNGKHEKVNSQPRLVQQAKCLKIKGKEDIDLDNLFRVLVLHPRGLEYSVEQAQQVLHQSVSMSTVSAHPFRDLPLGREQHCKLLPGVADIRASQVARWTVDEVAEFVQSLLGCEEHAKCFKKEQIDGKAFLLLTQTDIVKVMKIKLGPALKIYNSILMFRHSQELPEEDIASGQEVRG
Put plainly: Inhibition of L3MBTL4 by alpha-screening.

The chains behind the UniProt entries cited, without tags or fusion partners.
UniProt Q05BQ5, whole entry: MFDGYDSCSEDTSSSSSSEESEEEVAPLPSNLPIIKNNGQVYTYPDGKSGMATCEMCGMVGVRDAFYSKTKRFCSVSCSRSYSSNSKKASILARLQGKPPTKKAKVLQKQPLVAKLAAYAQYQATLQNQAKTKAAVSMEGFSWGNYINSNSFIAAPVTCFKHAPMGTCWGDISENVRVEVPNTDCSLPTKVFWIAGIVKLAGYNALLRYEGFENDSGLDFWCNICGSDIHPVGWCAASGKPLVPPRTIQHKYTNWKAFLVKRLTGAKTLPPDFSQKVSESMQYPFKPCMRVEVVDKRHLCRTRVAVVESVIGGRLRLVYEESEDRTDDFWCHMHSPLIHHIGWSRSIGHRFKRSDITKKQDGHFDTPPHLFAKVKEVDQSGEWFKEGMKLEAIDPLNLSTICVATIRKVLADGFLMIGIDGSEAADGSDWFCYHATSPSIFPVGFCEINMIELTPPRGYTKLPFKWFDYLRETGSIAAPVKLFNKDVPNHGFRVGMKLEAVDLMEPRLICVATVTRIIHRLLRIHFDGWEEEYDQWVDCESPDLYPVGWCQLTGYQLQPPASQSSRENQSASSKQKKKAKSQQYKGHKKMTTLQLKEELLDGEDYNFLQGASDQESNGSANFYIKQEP

A short description of assay [2]: AlphaScreen counterscreen signal interference at 100 uM. For orientation: Alpha assays give light when donor and acceptor beads are brought close together.
For assay [3], the target named is MBT domain-containing protein 1 (Homo sapiens, UniProt Q05BQ5). Put plainly: Inhibition of MBTD1 by alpha-screening. Put shortly:
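AlphaScreen competition of biotinylated methyl-lysine peptide binding to MBT protein. Conditions were L3MBTL3 at 200 nM with 150 nM H2AK36me1, L3MBTL4 at 100 nM with 150 nM H2AK36Me, and MBTD1 at 100 nM with 150 nM H4Kme20. Read-out used nickel chelate acceptor and streptavidin donor beads at 5 µg/mL, or 10 µg/mL for L3MBTL4. Compounds were tested in 10-point 3-fold dilutions (5 nM–100 µM). IC50 came from 4- or 3-parameter fits.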

For assay [4], the target named is T2, Lethal(3)malignant brain tumor-like protein 3 (Homo sapiens, UniProt Q96JM7).
T2 sequence (Q96JM7 whole entry): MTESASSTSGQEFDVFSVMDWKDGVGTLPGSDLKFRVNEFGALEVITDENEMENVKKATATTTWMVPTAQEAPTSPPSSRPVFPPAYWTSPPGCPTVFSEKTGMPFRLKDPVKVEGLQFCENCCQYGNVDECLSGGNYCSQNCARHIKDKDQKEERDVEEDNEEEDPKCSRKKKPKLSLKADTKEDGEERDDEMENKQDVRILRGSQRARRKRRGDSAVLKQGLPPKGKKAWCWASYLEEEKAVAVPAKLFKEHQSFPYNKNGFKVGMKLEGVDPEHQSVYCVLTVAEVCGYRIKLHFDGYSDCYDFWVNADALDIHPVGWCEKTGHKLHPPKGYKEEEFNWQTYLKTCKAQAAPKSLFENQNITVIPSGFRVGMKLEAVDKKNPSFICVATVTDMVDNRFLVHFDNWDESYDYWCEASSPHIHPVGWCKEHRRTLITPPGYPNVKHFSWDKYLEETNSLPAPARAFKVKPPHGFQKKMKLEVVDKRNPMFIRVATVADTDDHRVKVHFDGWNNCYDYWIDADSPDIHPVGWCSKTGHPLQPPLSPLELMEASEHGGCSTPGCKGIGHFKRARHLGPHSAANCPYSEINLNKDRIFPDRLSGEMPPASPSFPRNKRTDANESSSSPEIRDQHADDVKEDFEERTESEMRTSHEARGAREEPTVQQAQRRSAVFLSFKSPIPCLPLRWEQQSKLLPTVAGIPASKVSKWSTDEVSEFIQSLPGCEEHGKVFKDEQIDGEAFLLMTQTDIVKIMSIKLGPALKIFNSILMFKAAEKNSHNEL
Kind of assay: Inhibition of L3MBTL3 by alpha-screening.

A value given as a limit tells only on which side of the number the result lay.

As for `CNCCCCOc1ccccc1Cc1ccccc1` [BIFEMELANE], the half-inhibitory concentration (IC50) in assay [1] and in assay [3] was over 100 µM each time. The molecule further returned an Activity in assay [2] of 8%.
Take `CNCCC[C@]12CC[C@H](c3ccccc31)c1ccccc12`: the results for the IC50 in assay [1], in assay [3] and in assay [4] were over 100 µM, 31 µM and 85 µM, respectively.

Values taken from ChEMBL document CHEMBL1275333, “Identification of non-peptide malignant brain tumor (MBT) repeat antagonists by virtual screening of commercially available compounds” (J Med Chem, 2010).
